Amino acid sequences for entries named in this document (tags omitted). A change or cut given only in a name is not applied to a line headed by its entry.
UniProt Q92769, whole entry: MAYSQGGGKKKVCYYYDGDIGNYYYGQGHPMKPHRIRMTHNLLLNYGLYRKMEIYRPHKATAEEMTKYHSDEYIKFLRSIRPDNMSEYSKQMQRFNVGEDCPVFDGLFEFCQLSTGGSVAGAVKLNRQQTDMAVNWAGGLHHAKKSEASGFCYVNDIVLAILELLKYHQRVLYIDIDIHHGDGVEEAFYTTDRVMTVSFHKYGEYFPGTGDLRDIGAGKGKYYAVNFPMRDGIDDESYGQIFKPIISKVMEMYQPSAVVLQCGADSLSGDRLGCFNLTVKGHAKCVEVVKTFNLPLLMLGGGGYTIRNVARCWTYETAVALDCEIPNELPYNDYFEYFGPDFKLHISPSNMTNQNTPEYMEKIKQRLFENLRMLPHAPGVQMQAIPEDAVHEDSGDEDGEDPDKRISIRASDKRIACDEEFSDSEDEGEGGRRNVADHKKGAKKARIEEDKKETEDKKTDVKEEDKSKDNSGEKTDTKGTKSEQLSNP
UniProt O15379: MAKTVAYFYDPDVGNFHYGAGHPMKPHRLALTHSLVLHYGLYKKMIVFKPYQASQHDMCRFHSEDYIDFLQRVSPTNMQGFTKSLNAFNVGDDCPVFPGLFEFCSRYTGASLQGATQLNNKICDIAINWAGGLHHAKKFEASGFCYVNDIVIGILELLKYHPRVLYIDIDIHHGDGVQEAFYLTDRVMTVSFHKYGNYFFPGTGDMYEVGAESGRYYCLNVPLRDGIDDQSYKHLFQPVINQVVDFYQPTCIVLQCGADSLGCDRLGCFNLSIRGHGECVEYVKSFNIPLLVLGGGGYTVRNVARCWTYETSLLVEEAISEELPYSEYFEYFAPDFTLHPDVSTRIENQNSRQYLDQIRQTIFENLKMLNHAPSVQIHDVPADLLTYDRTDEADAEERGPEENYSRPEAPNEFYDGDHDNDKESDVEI
UniProt Q13547, whole entry: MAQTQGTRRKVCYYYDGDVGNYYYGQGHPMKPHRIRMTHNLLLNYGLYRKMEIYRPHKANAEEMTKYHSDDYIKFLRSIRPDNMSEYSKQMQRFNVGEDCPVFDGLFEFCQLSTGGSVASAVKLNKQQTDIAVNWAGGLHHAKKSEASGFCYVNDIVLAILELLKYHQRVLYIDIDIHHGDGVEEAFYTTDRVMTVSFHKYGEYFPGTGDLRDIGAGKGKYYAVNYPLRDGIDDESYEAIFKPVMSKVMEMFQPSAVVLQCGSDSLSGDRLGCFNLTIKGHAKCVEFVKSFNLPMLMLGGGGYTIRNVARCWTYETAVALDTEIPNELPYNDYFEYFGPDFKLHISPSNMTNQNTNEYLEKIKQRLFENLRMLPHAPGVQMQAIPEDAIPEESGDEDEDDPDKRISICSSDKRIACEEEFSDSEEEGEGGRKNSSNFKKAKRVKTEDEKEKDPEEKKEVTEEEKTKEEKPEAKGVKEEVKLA

According to ChEMBL document CHEMBL2331319, “Development of N-Hydroxycinnamamide-Based Histone Deacetylase Inhibitors with Indole-Containing Cap Group” (ACS Med Chem Lett, 2013):

Experiments:
Histone deacetylase 2 = Histone deacetylase 2 (Homo sapiens, UniProt Q92769)
Histone deacetylase 3 = Histone deacetylase 3 (Homo sapiens, UniProt O15379); assay: Inhibition of HDAC3 (unknown origin) using Boc-Lys(acetyl)-AMC as substrate preincubated with enzyme for 5 mins prior to substrate addition measured after 30 mins by fluorescence assay
Histone deacetylase 1 = Histone deacetylase 1 (Homo sapiens, UniProt Q13547); assay: Inhibition of HDAC1 (unknown origin) using Boc-Lys(acetyl)-AMC as substrate preincubated with enzyme for 5 mins prior to substrate addition measured after 30 mins by fluorescence assay

**Q.** With `CCCC(CCC)C(=O)N[C@H](COc1ccc(/C=C/C(=O)NO)cc1OC)Cc1c[nH]c2ccccc12` as the molecule, how does the IC50 (Histone deacetylase 2) read?
**A.** 1420 nM

**Q.** What about the IC50 (Histone deacetylase 3) of the same molecule?
**A.** 280 nM

**Q.** What about the IC50 (Histone deacetylase 1) of the same molecule?
**A.** 390 nM
